In one data set the target is Nav 1.7 (Homo sapiens (Human), UniProt Q15858). Briefly: Nav 1.7 in vitro PX assay (PatchXpress whole cell voltage clamp). Type of data set: cell-based. The note with it: read-out: Nav1.7 PX IC50 IP; 293 cells, human Nav1.7, partially inactivated state.
A further data set concerns the target Nav 1.5 (Homo sapiens (Human), UniProt Q14524). Briefly: Nav 1.5 in vitro PX assay (PatchXpress whole cell voltage clamp). Format: cell-based. The settings on record: read-out: Nav1.5 PX IC50; 293 cells stably transfected with Nav 1.5; second part of table.

By UniProt entry, the sequences of proteins in these tests, tags left out.
UniProt Q15858, whole entry: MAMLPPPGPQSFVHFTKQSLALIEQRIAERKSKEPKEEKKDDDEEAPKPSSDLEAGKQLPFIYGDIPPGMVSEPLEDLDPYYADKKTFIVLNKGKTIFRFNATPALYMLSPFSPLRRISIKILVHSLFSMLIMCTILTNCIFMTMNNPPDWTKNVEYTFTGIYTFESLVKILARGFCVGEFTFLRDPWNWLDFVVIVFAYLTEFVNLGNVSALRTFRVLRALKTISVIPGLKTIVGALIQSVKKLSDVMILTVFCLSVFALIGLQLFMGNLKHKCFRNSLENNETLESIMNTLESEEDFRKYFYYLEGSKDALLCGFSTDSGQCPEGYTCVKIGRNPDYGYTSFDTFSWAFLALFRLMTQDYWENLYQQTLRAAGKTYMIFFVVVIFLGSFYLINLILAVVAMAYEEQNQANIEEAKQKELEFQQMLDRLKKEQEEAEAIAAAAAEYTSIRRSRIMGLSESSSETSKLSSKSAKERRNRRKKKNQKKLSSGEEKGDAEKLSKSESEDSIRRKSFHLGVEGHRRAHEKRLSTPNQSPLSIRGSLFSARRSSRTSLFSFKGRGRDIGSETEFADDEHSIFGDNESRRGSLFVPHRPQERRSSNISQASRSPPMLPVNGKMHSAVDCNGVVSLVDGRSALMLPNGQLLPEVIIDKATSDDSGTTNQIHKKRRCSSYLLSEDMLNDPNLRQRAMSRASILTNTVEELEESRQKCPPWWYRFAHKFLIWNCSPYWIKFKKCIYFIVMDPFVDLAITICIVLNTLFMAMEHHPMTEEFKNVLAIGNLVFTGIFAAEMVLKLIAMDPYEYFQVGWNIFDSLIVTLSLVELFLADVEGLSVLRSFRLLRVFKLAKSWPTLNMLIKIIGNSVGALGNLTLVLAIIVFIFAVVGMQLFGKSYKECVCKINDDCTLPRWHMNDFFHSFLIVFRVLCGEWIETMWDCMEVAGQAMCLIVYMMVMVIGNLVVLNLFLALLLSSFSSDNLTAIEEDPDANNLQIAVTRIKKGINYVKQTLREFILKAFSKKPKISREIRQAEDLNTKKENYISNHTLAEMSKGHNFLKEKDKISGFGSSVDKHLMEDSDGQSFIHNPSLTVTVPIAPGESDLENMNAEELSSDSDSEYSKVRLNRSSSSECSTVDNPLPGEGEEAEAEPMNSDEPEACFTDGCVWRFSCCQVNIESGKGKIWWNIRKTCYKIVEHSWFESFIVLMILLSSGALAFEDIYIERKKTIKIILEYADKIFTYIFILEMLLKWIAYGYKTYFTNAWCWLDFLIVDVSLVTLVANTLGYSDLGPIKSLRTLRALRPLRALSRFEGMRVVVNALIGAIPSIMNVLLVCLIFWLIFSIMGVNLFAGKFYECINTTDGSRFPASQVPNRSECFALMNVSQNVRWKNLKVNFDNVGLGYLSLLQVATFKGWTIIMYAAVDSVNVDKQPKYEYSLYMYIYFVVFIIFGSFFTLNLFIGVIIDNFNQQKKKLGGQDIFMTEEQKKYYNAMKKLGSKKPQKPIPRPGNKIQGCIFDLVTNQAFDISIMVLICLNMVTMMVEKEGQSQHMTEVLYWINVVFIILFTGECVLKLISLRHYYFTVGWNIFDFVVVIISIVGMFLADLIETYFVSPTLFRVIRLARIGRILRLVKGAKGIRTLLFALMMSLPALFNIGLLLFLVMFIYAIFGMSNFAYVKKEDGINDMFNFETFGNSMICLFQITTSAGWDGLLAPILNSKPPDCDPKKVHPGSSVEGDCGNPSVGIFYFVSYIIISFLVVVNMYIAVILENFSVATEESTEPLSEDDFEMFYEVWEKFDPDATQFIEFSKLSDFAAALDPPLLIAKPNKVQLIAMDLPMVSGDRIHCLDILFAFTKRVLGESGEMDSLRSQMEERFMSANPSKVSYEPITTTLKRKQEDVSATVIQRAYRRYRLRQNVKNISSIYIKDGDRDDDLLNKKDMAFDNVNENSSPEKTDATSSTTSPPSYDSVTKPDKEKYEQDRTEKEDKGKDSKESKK
UniProt Q14524, whole entry: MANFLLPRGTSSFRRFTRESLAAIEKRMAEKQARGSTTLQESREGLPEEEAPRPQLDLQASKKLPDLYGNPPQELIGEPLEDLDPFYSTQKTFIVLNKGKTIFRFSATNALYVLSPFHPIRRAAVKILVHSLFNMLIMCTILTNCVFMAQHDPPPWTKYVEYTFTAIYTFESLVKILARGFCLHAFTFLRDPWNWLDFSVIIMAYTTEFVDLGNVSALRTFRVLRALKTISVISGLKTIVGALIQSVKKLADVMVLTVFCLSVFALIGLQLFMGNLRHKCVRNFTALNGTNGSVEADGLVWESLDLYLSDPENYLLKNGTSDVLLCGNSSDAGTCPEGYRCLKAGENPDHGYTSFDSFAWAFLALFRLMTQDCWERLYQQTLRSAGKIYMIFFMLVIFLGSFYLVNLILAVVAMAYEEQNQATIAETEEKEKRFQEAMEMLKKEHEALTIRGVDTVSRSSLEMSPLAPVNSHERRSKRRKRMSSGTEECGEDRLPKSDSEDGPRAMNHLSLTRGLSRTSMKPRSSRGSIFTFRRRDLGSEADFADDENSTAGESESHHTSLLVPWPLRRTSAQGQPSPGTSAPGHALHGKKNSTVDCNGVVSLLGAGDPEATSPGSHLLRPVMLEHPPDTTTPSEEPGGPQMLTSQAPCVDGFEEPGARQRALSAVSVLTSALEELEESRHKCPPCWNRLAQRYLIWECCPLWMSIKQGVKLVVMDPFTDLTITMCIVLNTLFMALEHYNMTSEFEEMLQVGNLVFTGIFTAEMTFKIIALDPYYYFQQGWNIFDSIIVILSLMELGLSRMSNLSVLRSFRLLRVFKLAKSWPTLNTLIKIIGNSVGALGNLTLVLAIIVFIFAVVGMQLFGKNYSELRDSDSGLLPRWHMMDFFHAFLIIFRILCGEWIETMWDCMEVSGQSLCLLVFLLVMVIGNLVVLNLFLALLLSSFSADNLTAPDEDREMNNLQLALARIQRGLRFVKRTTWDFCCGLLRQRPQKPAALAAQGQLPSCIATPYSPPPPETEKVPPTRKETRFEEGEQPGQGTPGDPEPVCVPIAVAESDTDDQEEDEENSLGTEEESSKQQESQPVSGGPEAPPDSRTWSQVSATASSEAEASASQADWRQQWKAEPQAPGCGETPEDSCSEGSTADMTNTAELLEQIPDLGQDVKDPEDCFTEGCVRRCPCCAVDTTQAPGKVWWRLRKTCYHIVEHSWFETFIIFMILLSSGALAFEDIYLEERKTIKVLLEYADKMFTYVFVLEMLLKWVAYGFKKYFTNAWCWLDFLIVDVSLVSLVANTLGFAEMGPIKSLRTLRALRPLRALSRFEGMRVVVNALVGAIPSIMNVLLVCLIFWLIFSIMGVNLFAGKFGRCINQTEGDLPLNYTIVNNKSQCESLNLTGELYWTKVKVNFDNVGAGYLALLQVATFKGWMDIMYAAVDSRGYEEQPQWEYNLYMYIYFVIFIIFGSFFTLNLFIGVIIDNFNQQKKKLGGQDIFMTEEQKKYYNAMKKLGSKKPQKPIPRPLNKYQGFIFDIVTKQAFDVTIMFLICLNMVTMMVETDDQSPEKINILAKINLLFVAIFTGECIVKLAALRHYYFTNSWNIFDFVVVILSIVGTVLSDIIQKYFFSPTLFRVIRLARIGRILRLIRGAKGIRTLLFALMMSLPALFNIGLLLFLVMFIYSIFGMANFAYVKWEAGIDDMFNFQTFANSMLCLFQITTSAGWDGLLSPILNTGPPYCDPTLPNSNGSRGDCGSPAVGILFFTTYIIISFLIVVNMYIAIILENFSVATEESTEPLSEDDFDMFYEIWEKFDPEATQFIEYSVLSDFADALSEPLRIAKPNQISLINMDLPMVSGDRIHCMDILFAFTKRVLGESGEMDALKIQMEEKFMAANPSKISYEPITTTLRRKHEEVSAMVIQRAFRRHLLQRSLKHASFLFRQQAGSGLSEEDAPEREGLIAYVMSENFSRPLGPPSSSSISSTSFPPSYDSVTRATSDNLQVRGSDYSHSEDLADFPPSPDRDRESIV

The values that follow come from patent US9012443B2 (Amgen Inc., priority 2011, dated 2015).

In the case of `COc1cc(-c2cccc(F)c2)ccc1-c1nncc2cc(S(=O)(=O)Nc3ccncn3)ccc12`, the IC50 on Nav 1.7 was 581 nM; at Nav 1.5 it was above 30000 nM.

One may read the IC50 as the midpoint of a concentration-inhibition curve.
